## AlphaSeq binding of Ab-14 light chain variants to a spike HR2 peptide

Data: MIT Lincoln Laboratory AlphaSeq set, Li et al. 2023, doi:10.1038/s41467-023-39022-2, as distributed in FLAb.

All variants were tested on one target, the spike HR2 peptide PDVDLGDISGINAS (SARS-CoV-2).

Ab-14 is the parent antibody, in scFv form: VH, then the linker GGGGSGGGGSGGGGS, then VL. The heavy chain is unchanged in all variants.
VH: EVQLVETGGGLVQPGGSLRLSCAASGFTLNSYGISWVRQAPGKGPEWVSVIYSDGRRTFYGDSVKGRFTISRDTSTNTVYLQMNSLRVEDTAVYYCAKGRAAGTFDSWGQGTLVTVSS
VL: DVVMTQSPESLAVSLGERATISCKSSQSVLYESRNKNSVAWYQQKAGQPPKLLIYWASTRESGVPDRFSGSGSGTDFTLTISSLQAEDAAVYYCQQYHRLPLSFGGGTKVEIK

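The starting antibody came from a phage panning campaign against this peptide. Designed CDR sequences, proposed from the first random library and measured here. Group labels follow the data file (En: ensemble of fine-tuned language models; GP: Gaussian process model; HC: hill climbing; Gen: genetic algorithm; Gibbs: Gibbs sampling; a sequence that several methods proposed may carry one label only). The assay is AlphaSeq: two haploid yeast populations carry antibody and antigen on their surface. Mating (16 h, 30 °C) was followed by selection of diploids and sequencing of their barcodes. A regression on co-assayed BCL2-family reference pairs converts the normalised counts of each replicate to an apparent Kd. The assay was run in six technical replicates.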

Variants are written as CDR1, CDR2 and CDR3 of the light chain (limits as in the source). Parent: KSSQSVLYESRNKNSVA, WASTRES, QQYHRLPLS.
This list holds designs with more than six substitutions.
Numbers give log10(Kd / nM), so 0 is 1 nM and 3 is 1 µM. Smaller is tighter.
A mean of the replicates is given; it leaves out those without a signal.
A pair that was not seen in any replicate is written "no signal"; this usually means weak binding, but a binder can also be missed.

For KLSQSYEYESRNKNSVA, NASQREH, QQYHRLPLR [GP_Gibbs], the assay gave -0.23 (6 of 6 replicates).
For MLSDLVKGGVRNTNSVA, DNSTRGS, QQYDRLPLS [En_HC], the assay gave 1.51 (6 of 6 replicates).
For HVPNYTENFMSAAQNIA, DQSAKTS, QQYDRLPLA [En_Gibbs], the assay gave 0.28 (6 of 6 replicates).
For IVSQLMLWGYKAKNSIA, EAELRTN, QQYDRLPLF [En_Gen], the assay gave 3.14 (1 of 6 replicates).
For MITAGLRGVGRNKNSVA, NAQTRED, QHYHRLPLS [En_HC], the assay gave 1.06 (6 of 6 replicates).
For SLAESVHMETRNKNSVA, DNSTRES, QHYHRLPLS [En_HC], the assay gave no signal (0 of 6 replicates).
For MLSDLVKMGSRNNNSVA, DNSTRGS, QQYDRLPLS [En_HC], the assay gave 2.80 (3 of 6 replicates).
For MLGGTMTWESKAKNSVA, QSNTRAE, QQYHRLPLS [En_HC], the assay gave 0.11 (6 of 6 replicates).
For TVSQVHDMLSRNKNSVA, DMNTRES, QQYDRLPLS [En_HC], the assay gave 0.02 (6 of 6 replicates).
For KLSQSDLYESRNKNNVA, NCSLREM, QDYHRLPLS [GP_Gibbs], the assay gave 1.06 (6 of 6 replicates).
For KISYMGEHFSTNHSAIA, QASTREE, QQYHRLPIS [En_HC], the assay gave 1.17 (6 of 6 replicates).
For KVQQSELGLSRMFNSVA, NASKRES, QQYHRLPLS [GP_Gibbs], the assay gave 0.02 (6 of 6 replicates).
For KMETYSQDNRLTISAIA, EASTIYQ, QQYGRLPLS [En_Gibbs], the assay gave 0.23 (6 of 6 replicates).
For KISFNTLIESKMLNSVA, EMTTREY, QDYDRLPLS [En_HC], the assay gave 0.25 (6 of 6 replicates).
For TISQSAQQESHNKNSVA, DLSVRGS, QQYHRLPLS [En_HC], the assay gave 0.34 (6 of 6 replicates).
For KLKELFAMWARAQGNVA, DATERCT, QQYSRLPIT [En_Gibbs], the assay gave 2.63 (5 of 6 replicates).
For KLQQADLYESRNANSVA, QASERES, QCYHRLPLS [GP_Gibbs], the assay gave 0.62 (6 of 6 replicates).
For HFEMFDIMENMYASSIA, NAHCLVE, QQYGRLPLT [En_Gibbs], the assay gave 1.92 (6 of 6 replicates).
For KLSQSYCMGDRNKNSVA, QASTREM, QQYHRLPLS [GP_Gibbs], the assay gave 1.14 (6 of 6 replicates).
For VFMGQWDGVTTTNSAVA, NVDERME, QQYNRLPLM [En_Gibbs], the assay gave 2.18 (4 of 6 replicates).
For MISQLYNMGQFAINSVA, QASERSN, QQYDRLPLI [En_Gen], the assay gave 2.95 (5 of 6 replicates).
For TLVQSVMGGSRTYNSVA, NAETRYD, QHYHRLPLS [En_HC], the assay gave no signal (0 of 6 replicates).
For KLSLGLGVQKQVEYNIA, NERLKIA, QQYDRLPLT [En_Gibbs], the assay gave 0.77 (6 of 6 replicates).
For KFEQLWGQEDRNKNSVA, NASQRED, QQYHRLPLS [GP_Gibbs], the assay gave -0.22 (6 of 6 replicates).
For QLEVFPLQGGSTTQAIA, DASHRTP, QQYSRLPLV [En_Gibbs], the assay gave -0.02 (6 of 6 replicates).
For KLPHLSFVHDRMKNNVA, DLNRKAA, QQYDRLPLT [En_Gibbs], the assay gave 0.63 (6 of 6 replicates).
For KVSQGELYESRDANNVA, NASTREN, QQYHRLPLS [GP_Gibbs], the assay gave 0.95 (6 of 6 replicates).
For KIGGVTNGISRNKNSVA, EQETRED, QQYNRLPLS [En_HC], the assay gave 0.49 (6 of 6 replicates).
For KFHMGWEAGQRKHDNVA, EANLRFS, QQYNHLPLI [En_Gibbs], the assay gave 1.02 (6 of 6 replicates).
For HFAWPWQSGYVSKQNVA, NASTVMT, QHYNRLPLS [En_Gibbs], the assay gave 0.73 (6 of 6 replicates).

The 4 strongest on average among those seen in every replicate, once more:

| CDR-L1 | CDR-L2 | CDR-L3 | group | log10 Kd (nM), mean | replicates with signal |
|---|---|---|---|---|---|
| KLSQSYEYESRNKNSVA | NASQREH | QQYHRLPLR | GP_Gibbs | -0.23 | 6/6 |
| KFEQLWGQEDRNKNSVA | NASQRED | QQYHRLPLS | GP_Gibbs | -0.22 | 6/6 |
| QLEVFPLQGGSTTQAIA | DASHRTP | QQYSRLPLV | En_Gibbs | -0.02 | 6/6 |
| KVQQSELGLSRMFNSVA | NASKRES | QQYHRLPLS | GP_Gibbs | 0.02 | 6/6 |

As a blank, each scFv also met three strains without target: over all light chain designs, 4% of these pairings were detected, typically at 2.64 and seldom below 1.59.
The authors' rule: three or more of the six replicates give a measured affinity, fewer mean a poor binder.
A sequence measured in both rounds can read differently, since the two assays cover different ranges.